# From patent publication US6951856B2, “Arylethene-sulfonamides” (Actelion Pharmaceuticals Ltd., priority 2000, dated 2005)
# Sequences of proteins named here, by UniProt entry; tags and fusion partners are left off. Residues count along the entry.
# UniProt P24530, 27-442 limits assumed: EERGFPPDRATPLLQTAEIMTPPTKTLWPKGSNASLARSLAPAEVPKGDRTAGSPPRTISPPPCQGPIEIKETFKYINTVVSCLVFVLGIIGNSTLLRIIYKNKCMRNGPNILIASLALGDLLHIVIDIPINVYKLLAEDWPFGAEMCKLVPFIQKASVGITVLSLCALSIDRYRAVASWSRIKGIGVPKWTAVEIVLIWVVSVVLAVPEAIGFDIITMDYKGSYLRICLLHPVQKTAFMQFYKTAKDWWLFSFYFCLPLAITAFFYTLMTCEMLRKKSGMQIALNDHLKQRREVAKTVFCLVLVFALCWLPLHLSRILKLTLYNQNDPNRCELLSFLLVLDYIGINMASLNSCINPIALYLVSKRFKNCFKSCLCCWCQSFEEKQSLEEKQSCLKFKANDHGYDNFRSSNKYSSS
# UniProt P25101, 21-427 limits assumed: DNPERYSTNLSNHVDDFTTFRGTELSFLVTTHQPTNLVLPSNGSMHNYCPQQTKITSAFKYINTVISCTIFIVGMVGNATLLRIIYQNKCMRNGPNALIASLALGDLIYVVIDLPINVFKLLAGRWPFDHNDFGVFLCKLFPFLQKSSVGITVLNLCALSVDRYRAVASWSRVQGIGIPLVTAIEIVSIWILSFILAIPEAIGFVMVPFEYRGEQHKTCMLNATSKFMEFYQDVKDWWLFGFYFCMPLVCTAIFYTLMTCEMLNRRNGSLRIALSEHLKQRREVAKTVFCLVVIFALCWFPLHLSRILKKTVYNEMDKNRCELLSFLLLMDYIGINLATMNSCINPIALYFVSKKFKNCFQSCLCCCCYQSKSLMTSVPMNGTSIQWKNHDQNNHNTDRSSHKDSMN
# What was measured:
# [1] = target: human recombinant ETB receptors (Homo sapiens, UniProt P24530); test: Inhibition of [125I]ET-1 binding to membranes from CHO cells carrying human ETB receptors; settings: read-out: IC50 ETB; CHO cell membranes, 8 pM [125I]ET-1, 2 h at 20° C.
# [2] = target: human recombinant ETA receptors (Homo sapiens, UniProt P25101); test: Inhibition of [125I]ET-1 binding to membranes from CHO cells carrying human ETA receptors; settings: read-out: IC50 ETA; CHO cell membranes, 8 pM [125I]ET-1, 2 h at 20° C.
SMILES,IC50 [1],IC50 [2]
COc1ccccc1Oc1c(NS(=O)(=O)/C=C/c2ccccc2)nc(-c2ccncc2)nc1OCCOc1ncc(Cl)cn1 [Example 164],756 nM,15 nM
COc1ccc(Cl)c(Oc2c(NS(=O)(=O)/C=C/c3ccccc3)ncnc2OCCOc2ncc(SC)cn2)c1,145 nM,4.3 nM
O=S(=O)(/C=C/c1ccccc1)Nc1ncnc(OCCOc2ccc(Br)cn2)c1-c1ccc(Cl)cc1,541 nM,41.7 nM
COc1cccc(Oc2c(NS(=O)(=O)/C=C/c3ccccc3)nc(N3CCOCC3)nc2OCCOc2ncc(Br)cn2)c1,3130 nM,26 nM

# Now from value to compound:
IC50 [1],IC50 [2],SMILES
3990 nM,28.7 nM,Cc1ccc(-c2c(NS(=O)(=O)/C=C/c3ccccc3)ncnc2OCCOc2ncc(C)cn2)cc1
4140 nM,27.2 nM,Cc1cnc(OCCOc2ncnc(NS(=O)(=O)/C=C/c3ccccc3)c2-c2ccc(Cl)cc2)nc1
832 nM,10.6 nM,COc1cnc(OCCOc2ncnc(NS(=O)(=O)/C=C/c3ccccc3)c2-c2ccc(Cl)cc2)nc1
277 nM,24 nM,Cc1ccc(/C=C/S(=O)(=O)Nc2ncnc(OCCOc3ncc(Br)cn3)c2-c2ccc(Cl)cc2)cc1
